# The list shows a part of the results, in another mix than the full data.
# Tested on: CLZ3 (HCA2 human fibroblast dual HR-NHEJ reporter)
# Assay: HR repair efficiency (tdTomato+ cells) relative to control (log10 fold); higher = more homologous recombination
# Conditions: 5 µM; doxycycline 0.5 ug/mL
# 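Also: compound given one day before doxycycline, which switches on I-SceI endonuclease expression to create double-strand breaks within the integrated reporter.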
compound,measurement,value
COc1c2ccccc2nc2occc12 [Dictamine],HR repair efficiency (log10),0.0499
